Test results: patent US8293244B2, “Phosphotriesterase from agrobacterium radiobacter p230” (dated 2012)

Chains of the proteins cited; added tags and fusions are not shown. Lines headed by an entry give the natural chain unless they say otherwise; changes in a name come on top.
UniProt P45548: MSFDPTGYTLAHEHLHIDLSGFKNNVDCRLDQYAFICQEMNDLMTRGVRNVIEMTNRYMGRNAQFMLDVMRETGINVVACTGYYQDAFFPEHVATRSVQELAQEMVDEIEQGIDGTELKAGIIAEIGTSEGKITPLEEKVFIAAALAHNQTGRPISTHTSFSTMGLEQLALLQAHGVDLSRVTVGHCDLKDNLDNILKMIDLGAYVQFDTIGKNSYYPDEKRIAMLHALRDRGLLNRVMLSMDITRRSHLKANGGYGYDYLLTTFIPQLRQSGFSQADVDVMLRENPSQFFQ
UniProt P27169: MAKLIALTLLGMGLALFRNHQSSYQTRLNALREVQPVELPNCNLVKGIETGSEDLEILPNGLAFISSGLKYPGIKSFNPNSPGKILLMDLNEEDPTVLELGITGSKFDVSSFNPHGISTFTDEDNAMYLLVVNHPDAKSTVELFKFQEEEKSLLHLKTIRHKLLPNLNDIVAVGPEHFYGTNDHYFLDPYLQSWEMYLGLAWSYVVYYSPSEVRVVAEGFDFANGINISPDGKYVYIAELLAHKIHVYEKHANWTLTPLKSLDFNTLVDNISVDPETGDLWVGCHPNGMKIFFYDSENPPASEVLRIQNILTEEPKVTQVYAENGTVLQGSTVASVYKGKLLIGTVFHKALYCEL

Assays:
OPD [1] = molecular target: T1, OPD (Sphingobium fuliginis, UniProt P0A433); test: Kinetic analysis of purified OPD with OP substrates (initial rates); settings: for kcat OPD: 50 mM Tris-HCl pH 8.0 at 25° C.; for Km: read-out: Km OPD, 50 mM Tris-HCl pH 8.0 at 25° C.
OpdA [2] = molecular target: T2, OpdA (Agrobacterium tumefaciens, UniProt Q93LD7); test: Kinetic analysis of purified OpdA with OP substrates (initial rates); settings: for kcat OpdA: 50 mM Tris-HCl pH 8.0 at 25° C.; for Km: read-out: Km OpdA, 50 mM Tris-HCl pH 8.0 at 25° C.
ePHP = ePHP (Escherichia coli, UniProt P45548); settings: cited from earlier work
[3] = test system: E. coli DH10β (p65) cell-free extract; test: Coumaphos hydrolytic activity of cell-free extracts, fluorimetric assay; settings: 15 μg protein
[4] = test system: E. coli DH10β (pBluescript) cell-free extract; test: Coumaphos hydrolytic activity of cell-free extracts, vector-only control; settings: vector alone
OpdA1 = OpdA1 (Agrobacterium tumefaciens, UniProt Q93LD7, A170S/P134S/P42S/S237G); test: Kinetics of purified mutant OpdA1 against aliphatic OPs; settings: for Km: read-out: Km OpdA1
OpdA2 = OpdA2 (Agrobacterium tumefaciens, UniProt Q93LD7, A119D); test: Kinetics of purified mutant OpdA2 against aliphatic OPs; settings: for Km: read-out: Km OpdA2
OpdA [5] = molecular target: T2, OpdA; test: Thin layer chromatography check of substrate hydrolysis by OpdA over 24 hours; settings: 0.4 mM substrate, 24 hour period
OPD [6] = molecular target: T1, OPD; test: Thin layer chromatography check of substrate hydrolysis by OPD over 24 hours; settings: 0.4 mM substrate, 24 hour period
Paraoxonase, or PON1 = Paraoxonase, or PON1 (Homo sapiens, UniProt P27169); settings: cited from earlier work
A. radiobacter P230 = test: Parathion hydrolytic activity of P230 cultures (p-nitrophenol formation at 405 nm); settings: 880 μM parathion in assay
[7] = test system: aryldialkylphosphatase (ADPase); settings: ADPase versus OPD; cited from earlier work

Compound	hydrolysis of substrate by OPD (in words) (OPD [1])	kcat OPD (OPD [1])	Km (OPD [1])	hydrolysis of substrate by OpdA (in words) (OpdA [2])	kcat OpdA (OpdA [2])	Km (OpdA [2])	also measured
CCOP(=O)(OCC)Oc1ccc2c(C)c(Cl)c(=O)oc2c1	able to hydrolyse	0.658 s⁻¹	25.3 µM	able to hydrolyse	0.378 s⁻¹	15.9 µM	–
CC(=O)Oc1ccc([N+](=O)[O-])cc1	–	–	–	–	–	–	phosphotriesterase activity in ePHP crude lysates (ePHP): No activity
CCOP(=S)(OCC)Oc1ccc2c(C)c(Cl)c(=O)oc2c1	able to hydrolyse	0.235 s⁻¹	21.4 µM	able to hydrolyse	0.207 s⁻¹	8.3 µM	Coumaphos hydrolytic activity [3]: 3.30 ± 0.07 nmol/min/mg protein; Coumaphos hydrolytic activity [4]: 0.78 ± 0.04 nmol/min/mg protein
COP(=S)(OC)Oc1ccc([N+](=O)[O-])cc1	able to hydrolyse	0.091 s⁻¹	32.9 µM	able to hydrolyse	1.57 s⁻¹	61.2 µM	–
CCOP(=S)(OCC)Oc1cc(C)nc(C(C)C)n1	able to hydrolyse	0.942 s⁻¹	54.2 µM	able to hydrolyse	1.09 s⁻¹	51.9 µM	–
CCOC(=O)CC(SP(=S)(OC)OC)C(=O)OCC (centres unmarked)	–	–	–	–	–	–	kcat OpdA1 (OpdA1): 0.0202 s⁻¹; Km (OpdA1): 33.3 µM; kcat OpdA2 (OpdA2): 0.0238 s⁻¹; Km (OpdA2): 40.9 µM
COP(=O)(OC)Oc1ccc2c(C)cc(=O)oc2c1	able to hydrolyse	0.342 s⁻¹	46.7 µM	able to hydrolyse	1.36 s⁻¹	66 µM	–
COP(=S)(OC)SCN1C(=O)c2ccccc2C1=O	unable to hydrdolyse	–	–	–	0.00167 s⁻¹	208 µM	hydrolysis by OpdA seen by thin layer chromatography (OpdA [5]): consistently observed; hydrolysis by OPD seen by thin layer chromatography (OPD [6]): no hydrolysis
CCOP(=O)(OCC)Oc1ccc([N+](=O)[O-])cc1	able to hydrolyse	0.767 s⁻¹	225 µM	able to hydrolyse	0.558 s⁻¹	242 µM	specificity constant (Paraoxonase, or PON1): around 10^6 M^−1 sec^−1; phosphotriesterase activity in ePHP crude lysates (ePHP): No activity
bis(p-nitrophenyl) phosphate	–	–	–	–	–	–	phosphotriesterase activity in ePHP crude lysates (ePHP): No activity
COP(=S)(OC)Oc1ccc(SC)c(C)c1	unable to hydrdolyse	–	–	–	0.0272 s⁻¹	149 µM	hydrolysis by OpdA seen by thin layer chromatography (OpdA [5]): consistently observed; hydrolysis by OPD seen by thin layer chromatography (OPD [6]): no hydrolysis
CCOP(=S)(OCC)Oc1nc(Cl)c(Cl)cc1Cl	able to hydrolyse	0.015 s⁻¹	47.2 µM	able to hydrolyse	0.00875 s⁻¹	32.6 µM	–
CCOP(=S)(OCC)Oc1ccc([N+](=O)[O-])cc1	able to hydrolyse	0.392 s⁻¹	50.6 µM	able to hydrolyse	0.365 s⁻¹	92.6 µM	Parathion hydrolytic activity (A. radiobacter P230; P230 culture grown in the absence of parathion to OD 595 nm 0.280): 3.13 ± 0.07 μmol/min/mg protein; Parathion hydrolytic activity (A. radiobacter P230; P230 culture grown in the presence of parathion to OD 595 nm 0.280): 3.36 ± 0.18 μmol/min/mg protein; turnover number, fold lower than that reported for OPD [7]: 4500 fold
CCOC(=O)CC(SP(=O)(OC)OC)C(=O)OCC (centres unmarked)	–	–	–	–	–	–	kcat OpdA1 (OpdA1): 0.033 s⁻¹; Km (OpdA1): 159 µM; kcat OpdA2 (OpdA2): 0.0307 s⁻¹; Km (OpdA2): 45.7 µM
CNC(=O)CSP(=S)(OC)OC	–	–	–	–	–	–	kcat OpdA1 (OpdA1): 0.0203 s⁻¹; Km (OpdA1): 78.9 µM; kcat OpdA2 (OpdA2): 0.0233 s⁻¹; Km (OpdA2): 14.3 µM
p-nitrophenyl phosphate	–	–	–	–	–	–	phosphotriesterase activity in ePHP crude lysates (ePHP): No activity
